Values quoted from earlier work in paper PMC2901243 (Nuclear medicine and biology, 2010).

Chains of the proteins cited; added tags and fusions are not shown. Lines headed by an entry give the natural chain unless they say otherwise; changes in a name come on top.
UniProt P30680: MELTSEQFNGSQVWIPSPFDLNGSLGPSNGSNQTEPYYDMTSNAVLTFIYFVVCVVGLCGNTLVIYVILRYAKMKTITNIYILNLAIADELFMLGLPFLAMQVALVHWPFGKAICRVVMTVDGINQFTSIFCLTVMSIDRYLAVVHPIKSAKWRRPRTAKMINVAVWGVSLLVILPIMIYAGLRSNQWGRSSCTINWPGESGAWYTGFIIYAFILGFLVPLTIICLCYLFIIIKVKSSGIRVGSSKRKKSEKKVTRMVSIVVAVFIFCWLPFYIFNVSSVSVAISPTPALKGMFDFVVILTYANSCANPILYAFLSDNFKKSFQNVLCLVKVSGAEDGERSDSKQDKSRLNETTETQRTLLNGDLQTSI

Target: SSTR2 (Rattus norvegicus, UniProt P30680)
Settings: read-out: IC50 of Re-cyclized; Re-cyclized TATE; ref [14]; cited from earlier work

DPhe-Cys-Tyr-DTrp-Lys-Thr-Cys-Thr(OH) [Re-TATE]
IC50: 29 nM
